Measured values from paper PMC7900901 (SLAS discovery : advancing life sciences R & D, 2017).

By UniProt entry, the sequences of proteins in these tests, tags left out.
UniProt Q9NUW8, whole entry: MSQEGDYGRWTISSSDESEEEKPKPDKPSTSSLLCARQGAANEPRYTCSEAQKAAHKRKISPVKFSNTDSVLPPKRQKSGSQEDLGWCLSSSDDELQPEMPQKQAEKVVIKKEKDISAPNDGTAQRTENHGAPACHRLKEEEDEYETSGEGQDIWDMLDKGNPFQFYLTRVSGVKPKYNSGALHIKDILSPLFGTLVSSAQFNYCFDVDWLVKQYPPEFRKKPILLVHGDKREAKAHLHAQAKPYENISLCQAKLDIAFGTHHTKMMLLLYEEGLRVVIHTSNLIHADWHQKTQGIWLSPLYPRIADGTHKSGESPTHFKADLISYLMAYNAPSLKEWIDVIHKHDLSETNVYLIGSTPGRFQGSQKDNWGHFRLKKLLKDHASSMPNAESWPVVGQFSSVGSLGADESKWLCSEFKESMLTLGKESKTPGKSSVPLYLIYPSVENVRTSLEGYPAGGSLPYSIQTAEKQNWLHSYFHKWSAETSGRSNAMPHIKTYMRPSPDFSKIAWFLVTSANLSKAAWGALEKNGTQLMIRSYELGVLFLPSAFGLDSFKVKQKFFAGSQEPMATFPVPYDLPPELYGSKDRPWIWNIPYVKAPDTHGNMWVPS

Molecular target: human TDP1 (Homo sapiens, UniProt Q9NUW8)
Assay: Continuous FRET assay, IC50 determination of inhibitors of TDP1
Format: biochemical

O=C(O)C1=CC(=C(c2ccc(O)c(C(=O)O)c2)c2ccc(O)c(C(=O)O)c2)C=CC1=O [Aurintricarboxylic acid, reference compound]
IC50: 8 ± 1 µM
